Measured values from patent US10138214B2, “Substituted triazoles and methods relating thereto” (Neurocrine Biosciences, Inc., priority 2015, dated 2018).

Legend:
MES-induced seizures [1] = test: Maximal electroshock (MES) test, mice i.p.; details: Mouse (IP), mpk=mg/kg; for MES active at (single dose): single dose at which shown active
MES-induced seizures [2] = test: Maximal electroshock (MES) test, rats p.o.; details: Rat (PO), mpk=mg/kg; for MES active at (single dose): single dose at which shown active

SMILES: CCNc1cn(Cc2c(F)cccc2F)nn1
- MES active at (single dose) (MES-induced seizures [1]): MES active at 100 mpk
- MES active at (single dose) (MES-induced seizures [2]): MES active at 30 mpk

SMILES: CC[C@@H](C(=O)Nc1cn(Cc2c(F)cccc2F)nn1)N1CCCC1=O
- MES active at (single dose) (MES-induced seizures [1]): MES active at 300 mpk

SMILES: CN(C)c1cn(Cc2ccccc2)nn1
- MES active at (single dose) (MES-induced seizures [1]): MES active at 100 mpk

SMILES: CNc1cn(Cc2c(F)cccc2F)nn1
- MES active at (single dose) (MES-induced seizures [1]): MES active at 100 mpk
- MES active at (single dose) (MES-induced seizures [2]): MES active at 30 mpk

SMILES: COC[C@@H](N)C(=O)Nc1cn(Cc2c(F)cccc2F)nn1
- MES ED50 (MES-induced seizures [1]): MES ED50 40 mpk
- MES active at (single dose) (MES-induced seizures [2]): MES active at 30 mpk

SMILES: N[C@H](CO)C(=O)Nc1cn(Cc2c(F)cccc2F)nn1
- MES active at (single dose) (MES-induced seizures [1]): MES active at 100 mpk
- MES ED50 (MES-induced seizures [2]): MES ED50 29 mpk

SMILES: N[C@H](Cc1ccccc1)C(=O)Nc1cn(Cc2c(F)cccc2F)nn1
- MES ED50 (MES-induced seizures [1]): MES ED50 56 mpk
- MES ED50 (MES-induced seizures [2]): MES ED50 24 mpk

SMILES: O=C(CCc1cccc(Cl)c1)Nc1cn(Cc2ccc(F)cc2)nn1
- MES active at (single dose) (MES-induced seizures [1]): MES active at 100 mpk

SMILES: O=C(CCc1cccnc1)Nc1cn(Cc2c(F)cccc2F)nn1
- MES active at (single dose) (MES-induced seizures [1]): MES active at 300 mpk

SMILES: OCCNc1cn(Cc2c(F)cccc2F)nn1
- MES active at (single dose) (MES-induced seizures [1]): MES active at 30 mpk
- MES active at (single dose) (MES-induced seizures [2]): MES active at 30 mpk

SMILES: N[C@@H](Cc1ccccc1)C(=O)Nc1cn(Cc2c(F)cccc2F)nn1 [Compound 3a, (2S)-2-amino-N-{1-[(2,6-difluorophenyl)methyl]-1H-1,2,3-triazol-4-yl}-3-phenylpropanamide]
- MES active at (single dose) (MES-induced seizures [1]): MES active at 100 mpk
- MES ED50 (MES-induced seizures [2]): MES ED50 25 mpk

SMILES: O=C(Nc1cn(Cc2c(F)cccc2F)nn1)[C@@H]1COCCN1 [Compound 3c, (3S)—N-{1-[(2,6-difluorophenyl)methyl]-1H-1,2,3-triazol-4-yl}morpholine-3-carboxamide]
- MES ED50 (MES-induced seizures [1]): MES ED50 20 mpk
- MES active at (single dose) (MES-induced seizures [2]): MES active at 15 mpk

SMILES: O=C(Nc1cn(Cc2c(F)cccc2F)nn1)[C@H]1COCCN1 [Compound 3d, (3R)—N-{1-[(2,6-difluorophenyl)methyl]-1H-1,2,3-triazol-4-yl}morpholine-3-carboxamide]
- MES ED50 (MES-induced seizures [1]): MES ED50 73 mpk
- MES ED50 (MES-induced seizures [2]): MES ED50 24 mpk

SMILES: CN(C)c1cn(Cc2c(F)cccc2F)nn1 [Compound 8a, [1-(2,6-difluoro-benzyl)-1H-[1,2,3]triazol-4-yl]-dimethyl-amine]
- MES ED50 (MES-induced seizures [1]): MES ED50 27 mpk
- MES ED50 (MES-induced seizures [2]): MES ED50 9 mpk

SMILES: Fc1cccc(F)c1Cn1cc(N2CCOCC2)nn1 [Compound 10a, 4-{1-[(2,6-difluorophenyl)methyl]-1H-1,2,3-triazol-4-yl}morpholine]
- MES ED50 (MES-induced seizures [1]): MES ED50 31 mpk
- MES ED50 (MES-induced seizures [2]): MES ED50 44 mpk

SMILES: Fc1cccc(F)c1Cn1cc(N2CCCC2)nn1 [Compound 10f, 1-[(2,6-difluorophenyl)methyl]-4-(pyrrolidin-1-yl)-1H-1,2,3-triazole]
- MES ED50 (MES-induced seizures [1]): MES ED50 73mpk
- MES active at (single dose) (MES-induced seizures [2]): MES active at 30 mpk

SMILES: O=C1CCCN1c1cn(Cc2c(F)cccc2F)nn1 [Compound 14a, 1-{1-[(2,6-difluorophenyl)methyl]-1H-1,2,3-triazol-4-yl}pyrrolidin-2-one]
- MES active at (single dose) (MES-induced seizures [1]): MES active at 100 mpk
- MES ED50 (MES-induced seizures [2]): MES ED50 28 mpk

SMILES: O=C1NCCN1c1cn(Cc2c(F)cccc2F)nn1 [Compound 16a, 1-{1-[(2,6-difluorophenyl)methyl]-1H-1,2,3-triazol-4-yl}imidazolidin-2-one]
- MES ED50 (MES-induced seizures [1]): MES ED50 8 mpk
- MES ED50 (MES-induced seizures [2]): MES ED50 7 mpk
